Measured values: patent US20110195929A1, “COMPOUNDS FOR THE TREATMENT OF FLAVIVIRAL INFECTIONS” (SUMMIT CORPORATION PLC, priority 2008, published 2011)

System: HCV
Assay: Cell-based HCV infection NS3 protease FRET assay in DMSO-Huh7 cells; note: test concentration or dose not given here
Parameters: species or system hepatitis C virus (HCV)
Settings: DMSO-Huh7 cells infected with HCV at 0.05 ffu/cell; HCV NS3 protein levels by FRET, day 6 p.i.

Substance: (2R,3S,4S)-4-hydroxy-2-(4-methoxybenzyl)pyrrolidin-3-yl acetate [Compound 5]
- Ave % inhibition: +++++ (+++++: ≧80%)
